Data on seven compounds can be found in PubChem BioAssay AID678 (Vanderbilt High Throughput Screening Facility, 2007).

What follows is the remainder of the data, with few or none of the hits. Activity calls are given as the source filed them.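 The calls were made as follows: active = fluorescence response below the plate's average for near-maximal glutamate wells, less 3 SD of those wells; inactive = the rest.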

The target of this test is Metabotropic glutamate receptor 4 (Homo sapiens) (UniProt Q14833). Description: human mGluR4 response to M1 antagonist hits, M1 allosteric modulator project, cell-based, antagonist mode, secondary assay 1 (AID 678).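 Also: raw unnormalized fluorescence span taken in the window right after glutamate addition.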 Conditions: CHO-mGluR4 calcium flux, Fluo-4 fluorescence, glutamate EC80; at 10 µM; active compounds read low.
Regarding `CNCCCN1c2ccccc2CCc2ccccc21`, the fluorescence response (max-min) is inactive: 242.

Take `OC(CCN1CCCCC1)(c1ccccc1)C1CCCCC1` (configuration not stated): the fluorescence response (max-min) was inactive: 268.

On to `OCCN1CCN(CCCN2c3ccccc3Sc3ccc(Cl)cc32)CC1`, for which the fluorescence response (max-min) is inactive: 265.

With `Cc1ccc(N(CC2=NCCN2)c2cccc(O)c2)cc1`, the fluorescence response (max-min) is inactive: 276.

Regarding `CN1C2CCC1CC(OC(=O)c1c[nH]c3ccccc13)C2` (configuration not stated), the fluorescence response (max-min) was inactive: 230.

For the compound `CCN(CC)CCOC(=O)C1(C2CCCCC2)CCCCC1`, the fluorescence response (max-min) is inactive: 263.

Take `CC(C)[N+]1(C)[C@@H]2CC[C@H]1CC(OC(=O)C(CO)c1ccccc1)C2` (some centres not stated): the fluorescence response (max-min) is inactive: 245.
